# Molecular target: Cannabinoid receptor 1 (Rattus norvegicus, UniProt P20272)
# Protein sequences, listed by entry. Tags and fused reporters are not part of them.
# UniProt P20272, whole entry: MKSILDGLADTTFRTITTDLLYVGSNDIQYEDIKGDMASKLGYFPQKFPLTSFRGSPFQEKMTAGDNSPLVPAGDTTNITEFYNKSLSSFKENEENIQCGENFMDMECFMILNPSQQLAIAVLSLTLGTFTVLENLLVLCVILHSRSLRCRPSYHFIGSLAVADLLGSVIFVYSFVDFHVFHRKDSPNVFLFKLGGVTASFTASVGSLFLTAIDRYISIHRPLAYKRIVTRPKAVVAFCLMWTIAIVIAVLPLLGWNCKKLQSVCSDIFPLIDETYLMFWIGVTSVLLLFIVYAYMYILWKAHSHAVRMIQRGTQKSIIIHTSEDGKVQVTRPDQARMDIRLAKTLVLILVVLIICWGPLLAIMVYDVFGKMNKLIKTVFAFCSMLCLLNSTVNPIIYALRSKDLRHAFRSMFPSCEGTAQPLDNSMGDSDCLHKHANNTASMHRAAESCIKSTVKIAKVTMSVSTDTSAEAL
# Experiment: Displacement of [3H]CP-55,940 from rat brain CB1 receptor after 1 hr by scintillation counting method
structure (smiles),measurement,value
Cc1ccc(Cn2nc(C(=O)N[C@@H]3C(C)(C)[C@@H]4CC[C@@]3(C)C4)cc2-c2ccc(Cl)c(C)c2)cc1 [SR-144528],Ki,400 nM

# — ChEMBL document CHEMBL4428116, “Synthesis, molecular modeling and SAR study of novel pyrazolo[5,1-f][1,6]naphthyridines as CB2 receptor antagonists/inverse agonists” (Bioorg Med Chem, 2016)
